1 compound from paper PMC8274062, “Promising Non-cytotoxic Monosubstituted Chalcones to Target Monoamine Oxidase-B” (ACS Medicinal Chemistry Letters, 2021) can be followed below.

In test [1] the test system is A2780 (human ovarian carcinoma cells). Nature of the test: Cell growth assay (trypan blue), A2780. Conditions: A2780, 72 h of incubation. In kind it is cell-based.
The subject of test [2] is HT-29 (human colorectal adenocarcinoma). Nature of the test: Cell growth assay (trypan blue), HT-29. In kind it is cell-based. The following applies: HT-29, 72 h of incubation.

By GI50 is commonly meant the concentration at which growth is held to half of that of the control. Lower therefore signals greater sensitivity of the cells. `O=C(/C=C/c1ccccc1)c1ccc(C(F)(F)F)cc1` [Compound 14]: the concentration for 50% growth inhibition (GI50) in test [1] and in test [2] was above 20 µM in each case.
